Data as given in paper PMC9995496, “A screen for MeCP2-TBL1 interaction inhibitors using a luminescence-based assay” (Scientific Reports, 2023).

Tested on: PRKACA-PRKAR2A interaction (SmBiT-PRKACA / LgBiT-PRKAR2A), protein kinase A
Settings: counter-screen for NanoLuc interference; 0.5 h, 20 µM; inhibitor

Q: Which “Inh (PKA)” value does the source give for N[C@@H](Cc1ccc([N+]([O-])(CCCl)CCCl)cc1)C(=O)O here?
A: Its value is 2.87%.
